Measured values taken from PMC10976160, “Comparative Pharmacokinetics Research of 13 Bioactive Components of Jieyu Pills in Control and Attention Deficit Hyperactivity Disorder Model Rats Based on UPLC-Orbitrap Fusion MS” (Molecules, 2024).

Test: Pharmacokinetics in control rats after gavage of JYPs
Format: in vivo, Sprague Dawley (SD) rats
Details: oral JYPs
Excerpt: According to the established method for the analysis of serum biological samples, the pharmacokinetics of various components of rat serum were investigated after the administration of different dosages of JYPs to control rats.
For the control experiment, healthy male Sprague Dawley (SD) rats of SPF grade ([…] ± 20 g) were purchased from Sipeifu (Beijing) Biotechnology Co., Ltd. (Beijing, China), Animal Quality Certificate No. 110324220102348616. For the ADHD model rats, healthy male SHR rats of SPF grade, weighing 220 ± 20 g, were purchased from SBF (Beijing) Biotechnology Co., Ltd. (Beijing, China), License No. SCXK (Yu) 2019-0010. The animals were accommodated in the Animal Center of Henan University of Traditional Chinese Medicine, which successfully underwent an ethical audit with ethics number DWLL202208003. The animals were bred under controlled conditions at a temperature of 24 °C and a relative humidity of 50 ± 2%. Before the experiment, the animals abstained from eating for 12 h and had unrestricted access to water. […]
We took 200 μL of plasma, added 600 μL of methanol solution and 50 μL of internal standard (100 ng/mL), and subjected it to shaking for 5 min, followed by centrifugation at 4 °C at 12,000 r/min for 10 min. […] The drug concentration in plasma was calculated with the aid of the internal standard.

Substance: Oxypaeoniflorin
- peak time (Tmax): < 1 h
